According to patent publication US20140127136A1, “LIPOSOMES USEFUL FOR DRUG DELIVERY TO THE BRAIN” (Merrimack Pharmaceuticals, Inc., priority 2004, published 2014):

Assays:
[1] = system: SKBr-3 breast cancer cells; test: cells; conditions: Homo sapiens, SK-BR-3
[2] = system: HER2-overexpressing human breast carcinoma cells SKBr-3; conditions: drug incubated with the cells for 6 h
[3] = system: HER2-overexpressing human breast carcinoma cells SKBr-3; test: MTT cytotoxicity of free, liposomal and immunoliposomal vincristine; conditions: SK-BR-3

SMILES: CC[C@@]1(O)C(=O)OCc2c1cc1n(c2=O)Cc2cc3c(CN(C)C)c(O)ccc3nc2-1 [free Topotecan, Topotecan Hydrochloride]
- IC50 [1]: ≥ 2.3 µg/mL

- IC50 [2]: 0.28 µg/mL
SMILES: CCC1=C[C@@H]2CN(C1)Cc1c([nH]c3ccccc13)[C@@](C(=O)OC)(c1cc3c(cc1OC)N(C)[C@H]1[C@@](O)(C(=O)OC)[C@H](OC(C)=O)[C@]4(CC)C=CCN5CC[C@]31[C@@H]54)C2.O=C(O)C(O)C(O)C(=O)O.O=C(O)C(O)C(O)C(=O)O [free VRB, vinorelbine bitartrate]

SMILES: CC[C@]1(O)C[C@H]2CN(CCc3c([nH]c4ccccc34)[C@@](C(=O)OC)(c3cc4c(cc3OC)N(C=O)[C@H]3[C@@](O)(C(=O)OC)[C@H](OC(C)=O)[C@]5(CC)C=CCN6CC[C@]43[C@@H]65)C2)C1 [free VCR, vincristine sulfate]
- IC50 [3]: 0.075 µg/mL

Counter-ions that a name gives are not always drawn. Like-named read-outs stand apart in the source and are kept apart here. Each block holds one molecule with its values, some of them ahead of it.
